This passage reports Ki and IC50 results from US20130123253A1, “MODULATORS OF CENTRAL NERVOUS SYSTEM NEUROTRANSMITTERS” (HUMAN BIOMOLECULAR RESEARCH INSTITUTE, priority 2004, published 2013).

Amino acid sequences for entries named in this document (tags omitted).
UniProt P31645, whole entry: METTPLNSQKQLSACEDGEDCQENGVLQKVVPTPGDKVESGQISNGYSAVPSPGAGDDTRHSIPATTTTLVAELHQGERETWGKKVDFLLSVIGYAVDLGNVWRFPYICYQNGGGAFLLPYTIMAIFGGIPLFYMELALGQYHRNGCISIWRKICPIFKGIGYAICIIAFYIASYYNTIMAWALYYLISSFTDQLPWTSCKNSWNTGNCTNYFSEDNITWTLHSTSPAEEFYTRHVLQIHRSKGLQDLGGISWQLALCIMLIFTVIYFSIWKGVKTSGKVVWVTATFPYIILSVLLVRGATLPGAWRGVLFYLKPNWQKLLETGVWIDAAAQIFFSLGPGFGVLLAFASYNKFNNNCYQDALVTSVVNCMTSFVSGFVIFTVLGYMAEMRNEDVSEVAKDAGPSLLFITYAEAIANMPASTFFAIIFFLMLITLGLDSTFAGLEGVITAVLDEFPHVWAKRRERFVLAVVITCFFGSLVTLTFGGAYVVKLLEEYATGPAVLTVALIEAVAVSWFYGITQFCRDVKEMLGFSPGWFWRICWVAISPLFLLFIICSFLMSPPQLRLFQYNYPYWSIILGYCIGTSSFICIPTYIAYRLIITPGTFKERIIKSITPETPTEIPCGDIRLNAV

Assay [1] deals with T1, human serotonin transporter (hSERT) (Homo sapiens, UniProt P31645). Description: Inhibition of [125I]RTI-55 binding in HEK-hSERT cell membranes.
The target in assay [2] is T1, human serotonin transporter (hSERT). Description: cell-based. The conditions noted are these: for Ki: Reuptake (Kr, nM) hSERT, Table 1.
Where [3] appears, read: Binding (Ki, nM) hSERT, Table 1.
[4] abbreviates: Binding (Ki, nM) hSERT, Table 6.
Where [5] appears, read: read-out: Binding (Ki, nM) hSERT, Table 1.
Where [6] appears, read: read-out: Binding (Ki, nM) hSERT.
The mark [7] stands for this setting: read-out: hSERT binding Ki, text of Example 28.
Setting [8] is: Binding (ki, nM) hSERT, Table 2.

In assay [1] (Binding (Ki) hSERT, Table 3, uM), `COc1ccc(C2=NNC(=O)C3CC=CCC23)cc1OC` (racemic) [Compound 19, 4-(3,4-Dimethoxy-phenyl)-4a,5,8,8a-tetrahydro-2H-phthalazin-1-one, reference compound] came in with a Ki of over 100 µM. Besides, the 50% inhibitory concentration (IC50) in assay [2] is over 100000 nM. As for `COc1ccc(C2=NNC(=O)[C@@H]3CC=CC[C@H]23)cc1OC` (racemic) [Compound 19, 4-(3,4-Dimethoxy-phenyl)-4a,5,8,8a-tetrahydro-2H-phthalazin-1-one, reference compound], the inhibition constant (Ki) in assay [1] (Binding (Ki, nM) hSERT, Table 15, mean ± S.E.M.) is over 100 µM; in assay [1] (hSERT binding Ki, Example 29), over 109 µM. The IC50 in assay [2] was over 100000 nM. `COc1ccc(F)cc1[C@@H]1CC[C@H](CCNCCc2ccccc2)O1` (relative stereo) [Cis-2-Phenethyl-aminoethyl)-5-(2′-methoxy-5′-fluorophenyl) tetrahydrofuran] returned a Ki in assay [1] (setting [3]) of 17.5 µM.

Take `COc1ccc(F)cc1C[C@@H]1CC[C@H](CN)O1` (relative stereo) [Compound 18f, Cis-2-aminomethyl-5-(2′-methoxy-5′-fluorophenylmethyl)tetrahydrofuran]: in assay [2], inhibition was half-maximal at 111 nM (IC50).

`COc1ccc(F)cc1CCC[C@H]1CC[C@@H](CN)O1` (relative stereo) [Compound 18n] returned an inhibition constant (Ki) in assay [1] (Binding (Ki, nM) hSERT) of 0.0028 µM. For the compound `NC[C@@H]1CC[C@@H](c2ccccn2)O1` (relative stereo) [trans-2-(aminomethyl)-5-(2′-pyridyl) tetrahydrofuran.], the Ki in assay [1] (setting [3]) is 78.2 µM.

Take `NC[C@@H]1CC[C@@H](c2cnc3ccccc3c2)O1` (relative stereo) [trans-2-(aminomethyl)-5-(3′-quinoline) tetrahydrofuran]: the Ki in assay [1] (setting [3]) was 5.86 µM. For the compound `CN1CCC[C@H]1C=Cc1ccccc1` (stereo in doubt) [1-Methyl-2-Styrenyl Pyrrolidine], in assay [1] (setting [4]), the Ki is over 10 µM.

With `C(=C[C@@H]1CCCN1)c1ccccc1` (stereo in doubt) [2-Styrenyl Pyrrolidine], in assay [1] (setting [4]), the Ki turned out to be 4.58 µM.

In turn, `COc1ccc(F)cc1C[C@H]1CC[C@H](CN)O1` (stereo in doubt) [Compound 18e, Trans-2-aminomethyl-5-(2′-methoxy-5′-fluorophenylmethyl)tetrahydrofuran] came in with a concentration for half-maximal inhibition (IC50) in assay [2] of 122 nM. In the case of `COc1ccc(F)cc1CCC[C@@H]1CC[C@@H](CN)O1` (stereo in doubt) [trans-2-amino-methyl-5-((2″-methoxy-5″- fluorophenyl)-3′-propyl)tetra-hydrofuran], the Ki in assay [1] (Binding (Ki, nM) hSERT) was 0.0008 µM. As to `NCC1CCC(c2cnc3ccccc3c2)O1` (centres unmarked) [2-(amino-methyl)-5-(3′-quinoline) tetrahydrofuran], the inhibitory constant (Ki) in assay [1] (setting [3]) amounted to 11.4 µM. Still for that read-out and setting: with `NCC1CCC(CCc2ccc(F)cc2)O1` (centres unmarked) [2-(amino-methyl)-5-(4′-fluorophenethyl) tetrahydrofuran] the figure was 9.19 µM; with `NCCC1CCC(c2ccco2)O1` (centres unmarked) [2-(aminoethyl)-5-(2′-furyl)tetra-hydrofuran], 12.1 µM. In the case of `COc1ccc2ccccc2c1CCC1CCC(CCN)O1` (centres unmarked) [2-(aminoethyl)-5-(2′-methoxy-1′-naphethyl) tetrahydrofuran,], in assay [1] (setting [5]), the Ki worked out at 0.086 µM. For the compound `Cc1ccc(CCC2CCC(CCN)O2)cc1F` (centres unmarked) [2-(aminoethyl)-5-(3′-fluoro-4′-methylphenethyl) tetrahydrafuran], the Ki in assay [1] (setting [3]) was 1.49 µM. On the same count and under the same terms, with `NCCC1CCC(c2ccc(Br)cc2)O1` (centres unmarked) [2-(aminoethyl)-5-(4′-bromophenyl) tetrahydrofuran] the figure was 0.944 µM; with `NCCC1CCC(c2ccc(F)cc2)O1` (centres unmarked) [2-(aminoethyl)-5-(4′-fluorophenyl) tetrahydrofuran], over 10 µM. Same read-out and setting: then `NCCC1CCC(CCc2ccncc2)O1` (centres unmarked) [2-(aminoethyl)-5-(4′-pyridylethyl) tetrahydrofuran,], with 15.4 µM; and `CC(C)(C)c1ccc(C2CCC(CCN)O2)cc1` (centres unmarked) [2-(aminoethyl)-5-(4′-t-butylphenyl) tetrahydrofuran], with over 10 µM; and `NCCC1CCC(C2CCCCC2)O1` (centres unmarked) [2-(aminoethyl)-5-cyclohexyl tetrahydrofuran,], with over 10 µM. Take `NCCC1CCC(Cc2ccccc2)O1` (centres unmarked) [2-(aminoethyl-5-benzyltetra-hydrofuran]: the Ki in assay [1] (setting [6]) came to 3.82 µM. As to `NCC1CCC(CCc2cccc3ccccc23)O1` (centres unmarked) [2-(aminomethyl)-5-(1′-naphethyl) tetrahydrofuran], the inhibition constant Ki in assay [1] (Binding (Ki, nM) hSERT) came to 0.0185 µM.

Turning to `NCC1CCC(CCc2cc(C(F)(F)F)ccc2Cl)O1` (centres unmarked) [2-(aminomethyl)-5-(2′-chloro-5′-trifluoromethyl) phenethyl)tetra-hydrouran], in assay [1] (setting [3]), the Ki stood at 0.092 µM.

On to `COc1ccc2ccccc2c1CCC1CCC(CN)O1` (centres unmarked) [2-(aminomethyl)-5-(2′-methoxy-1′-napheyhyl) tetrahydrofuran], for which, in assay [1] (setting [3]), affinity was put at a Ki of 0.228 µM. In assay [1] (setting [3]), `COc1ccc(CCC2CCC(CN)O2)cc1OC` (centres unmarked) [2-(aminomethyl)-5-(3′,4′di-methoxy-phenethyl) tetrahydrofuran] registered an inhibition constant Ki of 4.52 µM. Same read-out and setting: then `NCC1CCC(CCCc2ccccc2)O1` (centres unmarked) [2-(aminomethyl)-5-(3′-phenyl-propyl) tetrahydrofuran], with 0.381 µM. `COc1ccc(CCC2CCC(CN)O2)c2ccccc12` (centres unmarked) [2-(aminomethyl)-5-(4′-methoxy-1′-naphthylethyl) tetrahydrofuran] displayed a Ki in assay [2] of 53 nM. Take `COc1ccc(C2CCC(CN)O2)cc1` (centres unmarked) [2-(aminomethyl)-5-(4′-methoxy-phenyl)tetra-hydrofuran]: the Ki in assay [1] (setting [5]) was found to be 6.88 µM.

Regarding `NCC1CCC(CCc2ccncc2)O1` (centres unmarked) [2-(aminomethyl)-5-(4′-pyridylethyl) tetrahydrofuran], the affinity in assay [1] (setting [3]), expressed as Ki, was 18.6 µM. On to `CC(C)(C)c1ccc(C2CCC(CN)O2)cc1` (centres unmarked) [2-(aminomethyl)-5-(4′-t-butylphenyl) tetrahydrofuran], for which the Ki in assay [2] was 637 nM. `NCC1CCC(CCc2ccccc2)O1` (centres unmarked) [2-(aminomethyl)-5-(phenethyl) tetrahydrofuran]: the inhibition constant Ki in assay [1] (setting [5]) amounted to 0.068 µM. `NCC1CCC(Cc2ccccc2)O1` (centres unmarked) [2-(aminomethyl)-5-benzyl tetrahydrofuran] registered an inhibition constant (Ki) in assay [1] (setting [3]) of over 10 µM.

As for `NCC1CCC(c2ccccc2)O1` (centres unmarked) [2-(aminomethyl)-5-phenyltetra-hydrofuran], the inhibitory constant (Ki) in assay [1] (setting [6]) stood at 0.043 µM. As for `COc1ccc(F)cc1C1CC[C@@H](CCNCCc2ccccc2)O1` (stereo partly drawn) [Cis-2-(Phenethyl-aminoethyl)-5-(2′-methoxy-5′-fluorophenyl) tetrohydrofuran], the inhibition constant (Ki) in assay [1] (setting [3]) worked out at 13.8 µM.

With `NCC1CCC(CCc2cccc3ccccc23)O1` (centres unmarked) [Compound 15a, 2-(Aminomethyl)-5-(1′-naphthethyl)tetrahydrofuran], the inhibitory constant (Ki) in assay [1] (hSERT binding Ki) came out at 0.0185 µM. As to `COc1ccc2ccccc2c1CCC1CCC(CCN)O1` (centres unmarked) [Compound 17a, 2-Aminoethyl-5-(2′-methoxy1-1′-naphthethyl)tetrahydrofuran], the inhibition constant Ki in assay [1] (setting [7]) is 0.0856 µM. Still for that read-out and setting: with `COc1ccc(CCC2CCC(CCN)O2)c2ccccc12` (centres unmarked) [Compound 17b, 2-Aminoethyl-5-(4′-methoxy1-1′-naphthethyl)tetrahydrofuran] the figure was 0.0923 µM. In assay [1] (Binding (Ki, nM) hSERT), `COc1ccc(F)cc1CCCCC1CCC(CN)O1` (stereo not drawn) [Compound 18q, Trans-2-Aminomethyl-5-(5″-fluoro-2″-methoxyphenyl-4′-butyptetrahydrofuran] came in with a Ki of 0.004 µM. On to `COc1ccc(F)cc1C[C@H]1CC[C@H](CCNCC[C@@H]2CC[C@@H](Cc3cc(F)ccc3OC)O2)O1` [N,N-Bis (trans-5′-(2″- methoxy-5″-fluoro-benzyl-2′-tetrahydro-furyl)-2-ethyl)amine], for which the affinity in assay [1] (setting [8]) corresponds to a Ki of 0.061 µM. On to `Oc1ccc(CCC2CCC(CCNCCC3CCC(CCc4ccc(O)cc4)O3)O2)cc1` (centres unmarked) [N,N-bis (5′-(p-hydroxy-phenethyl)-2′-tetra-hydrofuryl-ethyl) amine], for which affinity in assay [1] (setting [8]) was put at a Ki of 0.386 µM. Same read-out and setting: then `CC(C)(C)c1ccc(C2CCC(CCNCCC3CCC(c4ccc(C(C)(C)C)cc4)O3)O2)cc1` (centres unmarked) [N,N-bis (5′-(p-t-butyl-phenyl)-2′-tetra-hydro-furyl-ethyl) amine], with over 10 µM. Still for that read-out and setting: then `C1CCC(C2CCC(CCNCCC3CCC(C4CCCCC4)O3)O2)CC1` (centres unmarked) [N,N-bis (5′-cyclo-hexyl-2′-tetra-hydro-furyl-ethyl) amine], with 6.76 µM; and `COc1ccc2ccccc2c1CCC1CCC(CCNCCC2CCC(CCc3c(OC)ccc4ccccc34)O2)O1` (centres unmarked) [N,N-bis(5′-(2″- methoxy-1″-naphth-ethyl)-2′-tetra-hydrofuryl-ethyl) amine], with 2.03 µM. On to `c1cc(CCC2CCC(CCNCCC3CCC(CCc4ccncc4)O3)O2)ccn1` (centres unmarked) [N,N-bis(5′-(4″- pyridyl-ethyl)-2′-tetrahydro-furyl-ethyl) amine], for which the affinity in assay [1] (setting [8]) corresponds to a Ki of 6.61 µM.

In assay [1] (setting [8]), `COc1ccc(CCC2CCC(CCNCCC3CCC(CCc4ccc(OC)c5ccccc45)O3)O2)c2ccccc12` (centres unmarked) [N,N-bis(5′-(4″-meth-oxy-1″-naphth-ethyl)-2′-tetrahydro-furyl-ethyl) amine] showed an inhibition constant (Ki) of 3.67 µM. `COc1ccc(F)cc1CCC1CCC(CCNCCC2CCC(CCc3cc(F)ccc3OC)O2)O1` (centres unmarked) [N,N-bis(5′-(5″-fluoro-2″- methoxy-phenethyl)-2′-tetrahydrofurylethyl) Amine] showed a Ki in assay [1] (setting [8]) of 0.075 µM. The same measure, in the same setting: with `Cc1ccc(CCC2CCC(CCNCCC3CCC(CCc4ccc(C)c(F)c4)O3)O2)cc1F` (centres unmarked) [N,N-bis(5′-(m-fluoro-p-methyl-phenethyl)-2′-tetrahydro-furylethyl) amine] the figure was 2.58 µM; with `Brc1ccc(C2CCC(CCNCCC3CCC(c4ccc(Br)cc4)O3)O2)cc1` (centres unmarked) [N,N-bis(5′-(p-bromo-phenyl)-2′-tetra-hydrofuryl-ethyl) Amine], 0.128 µM. As for `COc1ccc(F)cc1C[C@H]1CC[C@@H](CCNCC[C@H]2CC[C@@H](Cc3cc(F)ccc3OC)O2)O1` [N,N-bis(cis-5′-(2″- methoxy-5″-fluoro-benzyl-2′-tetrahydro-furyl)-2-ethyl) amine], the affinity in assay [1] (setting [8]) corresponds to a Ki of 0.022 µM.

The Ki is a measure of affinity in units of concentration, obtained from inhibition or displacement. One may read the IC50 as the concentration at which inhibition is half-maximal. Read a high IC50 as weaker potency in that assay.
